This is a selection; strong and weak results do not stand in their true shares. Results with a measured potency or affinity are listed apart. Activity calls are given as the source filed them. Rule as the data show it: active = inhibition above about 55%; inactive = the rest.
molecular target: Dual specificity protein phosphatase 3 (Homo sapiens) (UniProt P51452); assay: VHR1 phosphatase inhibitors, biochemical (AID 1878); settings: recombinant VHR phosphatase, fluorogenic substrate; at 13.3 µM; active compounds read high

Chains of the proteins cited; added tags and fusions are not shown. Lines headed by an entry give the natural chain unless they say otherwise; changes in a name come on top.
UniProt P51452: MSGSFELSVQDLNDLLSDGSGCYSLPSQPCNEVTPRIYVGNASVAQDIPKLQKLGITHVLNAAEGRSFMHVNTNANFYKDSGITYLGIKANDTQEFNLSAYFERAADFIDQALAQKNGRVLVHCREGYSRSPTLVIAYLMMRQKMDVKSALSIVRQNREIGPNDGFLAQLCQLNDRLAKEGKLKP

| SMILES | inhibition |
| --- | --- |
| Nc1cccc2c([As](=O)(O)O)cccc12 | inactive: -6.8% |

From PubChem BioAssay AID1878 (Sanford-Burnham Center for Chemical Genomics, 2009)
